Biological target: Substance-K receptor (Homo sapiens, UniProt P21452)
Assay: Binding affinity to human NK2 receptor by radioligand displacement assay

Protein sequences, listed by entry. Tags and fused reporters are not part of them.
UniProt P21452, whole entry: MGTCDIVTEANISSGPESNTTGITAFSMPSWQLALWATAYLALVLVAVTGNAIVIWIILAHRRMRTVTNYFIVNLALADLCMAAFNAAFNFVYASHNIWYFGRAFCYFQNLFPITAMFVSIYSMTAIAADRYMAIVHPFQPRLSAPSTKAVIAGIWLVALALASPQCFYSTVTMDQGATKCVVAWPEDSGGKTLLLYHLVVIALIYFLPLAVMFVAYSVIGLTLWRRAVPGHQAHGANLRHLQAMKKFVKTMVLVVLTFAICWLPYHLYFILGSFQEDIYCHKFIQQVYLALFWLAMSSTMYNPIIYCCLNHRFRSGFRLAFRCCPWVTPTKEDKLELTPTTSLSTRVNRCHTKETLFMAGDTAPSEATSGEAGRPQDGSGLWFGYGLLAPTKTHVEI

CCCC[C@H](NC(=O)[C@H](CC(C)C)NC(=O)CNC(=O)[C@@H](NC(=O)[C@H](Cc1ccccc1)NC(=O)[C@H](CO)NC(=O)[C@@H](N)CC(=O)O)C(C)C)C(N)=O
IC50: 9.2 nM

From BindingDB's records for doi:10.1016/j.ejmech.2013.01.044 (University of Siena, 2013)
